We go through 21 molecules from PubChem BioAssay (NCATS).

Only a part is listed here, and it is no random draw. Inconclusive results are not listed. Active and inactive are the calls of the source. Calls follow the shape of the dose curve; as a rule, active = well fitted curve in either direction with a large enough effect (not every such curve was filed as active); inconclusive = small, poorly fitted or top-dose-only effect, or another doubt; inactive = flat fitted curve, though single readings scatter.
% is scaled to controls: 0 for no effect and ±100 for the full control effect.

The test is described as follows: Stat Signaling Pathway (AID 446).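 Also: ME-180 cervical cancer cells given 40 pM IL-6 alongside compound.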 Conditions: ME-180 (cervical carcinoma) SIE beta-lactamase reporter, IL-6 stimulated, 5 h; at 7.69 µM (top of the series) unless noted. The method, then:
NCGC Assay Overview: The IL-6/STAT signaling pathway was assayed in ME-180 cervical carcinoma cells by a beta-lactamase reporter gene controlled by a STAT Inducible Element (SIE). This reporter is induced by IL-6 at 40 pM AC50 and inhibited by the pan JAK inhibitor, 2-(1,1-Dimethylethyl)-9-fluoro-3,6-dihydro-7H-benz[h]-imidaz[4,5-f]isoquinolin-7-one, at approximately 10 nM AC50. Plated cells were incubated overnight and on the following day, stimulated with 40 pM IL-6 for 5 hrs. The assay was screened at the AC50 of IL-6 activation to identify both inhibitors and activators of IL-6/STAT signaling.
NCGC Assay Protocol Summary: Cells were trypsinized, washed in assay medium (AM, OPTI MEM with 0.5% fetal bovine serum, 0.1 mM nonessential amino acids, 1 mM sodium pyruvate, 10mM HEPES pH 7.3, 100U/ml penicillin, and 100 ug/ml streptomycin) and suspended at 6 x 10e5/ml in AM. Approximately […] cells in 5 uL/well was dispensed into 1536 well plates and the cells were incubated overnight at 37 C. 23 nL of compound were delivered by a pin tool and 1 uL of IL-6 (40 pM final concentration in AM) was added. After centrifugation at 1000 rpm for less than a minute, plates were incubated at 37C for 5 hrs. One uL of detector mix (LiveBLAzerTM, Invitrogen) was added, the plates incubated at room temperature for 2.5 hrs, and fluorescence intensity at 460 and 530 nm emission was measured at 405 nm excitation by an Envision (Perkin Elmer) or Safire II (Tecan). Data were normalized by GeneData to the controls for AC90 stimulation (300 pM IL-6) and to AC90 inhibition (125 nM Jak inhibitor, 40 pM IL-6 in AM).
Take `CN(CCCl)Cc1cc(Cl)c(NC2=NCCN2)c(Cl)c1`: the activity, negative = inhibition was inactive: -2.9% [at 38 µM].

As for `NC(=O)Nc1ccc([As](=O)(O)O)cc1`, the activity, negative = inhibition was inactive: 6.02% [at 17.2 µM].

`Cc1cccc(OCC(=O)OC2CN3CCC2CC3)c1` (stereo unspecified): the activity, negative = inhibition was inactive: -1.78% [at 17.2 µM].

In the case of `[N-]=[N+]=NCC(N)=O`, the activity, negative = inhibition was inactive: -0.888%.

`NS(=O)(=O)Cc1ccc([As](=O)(O)O)cc1`: the activity, negative = inhibition was inactive: -6.51%.

Turning to `O=[As]c1ccc(S(=O)(=O)NCCO)cc1` (stereo unspecified), the activity, negative = inhibition is inactive: -8.53%.

As to `O=[As](O)(O)c1ccc([As](=O)(O)O)cc1`, the activity, negative = inhibition was inactive: 0.488%.

As for `NC(=O)Nc1cc([As](=O)(O)O)cc(I)c1O`, the activity, negative = inhibition is inactive: 5.03%.

In the case of `CN(C(=O)Cc1ccccc1)[C@@H]1CC[C@@]2(CCCO2)C[C@H]1N1CCCC1`, the activity, negative = inhibition was inactive: 6.34% [at 38 µM].

Turning to `NCC[C@@H](N)CSP(=O)(O)O`, the activity, negative = inhibition is inactive: -2.77%.

Turning to `CN1CCC[C@H](OC(=O)C(c2ccccc2)c2ccccc2)C1`, the activity, negative = inhibition was inactive: -5.56%.

For `O=[N+]([O-])c1ccc(C[As](=O)(O)O)cc1`, the activity, negative = inhibition is inactive: 8.63%.

`[N-]=[N+]=NCC(O)CN=[N+]=[N-]` (stereo unspecified): the activity, negative = inhibition was inactive: 3.67%.

With `O=C(O)[C@@H](O)c1ccc([As](=O)(O)O)cc1`, the activity, negative = inhibition was inactive: -3.15%.

Consider `Cc1ccc(OCC(=O)OC2CN3CCC2CC3)cc1` (stereo unspecified), for which the activity, negative = inhibition is inactive: 6.78% [at 17.2 µM].

With `CN(C(=O)Cc1ccc(Cl)c(Cl)c1)[C@@H]1CC[C@@]2(CCCO2)C[C@H]1N1CCCC1`, the activity, negative = inhibition is inactive: -12% [at 38 µM].

On to `O=C(CC(=O)c1ccccc1)O[C@H]1CN2CCC1CC2`, for which the activity, negative = inhibition is inactive: 0.783%.

`O=C(CO)Nc1ccc([As](=O)(O)O)cc1`: the activity, negative = inhibition is inactive: -4.17%.

As for `[N-]=[N+]=Nc1ccc([As](=O)(O)O)cc1`, the activity, negative = inhibition was inactive: -2.09%.

With `C[C@@H](O)COc1ccc([As](=O)(O)O)cc1N`, the activity, negative = inhibition was inactive: 5.45%.

On to `C(Cc1nn[nH]n1)c1nn[nH]n1`, for which the activity, negative = inhibition was inactive: -12.1%.
